From US11261152B2, “Inhibitors of the N-terminal domain of the androgen receptor” (The Regents of the University of California, priority 2017, dated 2022)

Test system: AR transcriptional activity (MMTV reporter)
Assay: MMTV reporter assay
Assay type: cell-based
Details: Table 3 grade HIGH/MED/LOW, grades not defined

## CNC(=O)c1ccc(N2C(=S)N(c3ccc(C#N)c(C(F)(F)F)c3)C(=O)C2(C)C)cc1F [MDV 3100, enzalutamide, reference compound]
  MMTV: HIGH
